What follows are compounds tested against Metabotropic glutamate receptor 7 (Rattus norvegicus, UniProt P35400) (assay: Positive allosteric modulation of rat mGluR7).

Sequences of proteins named here, by UniProt entry; tags and fusion partners are left off.
UniProt P35400, whole entry: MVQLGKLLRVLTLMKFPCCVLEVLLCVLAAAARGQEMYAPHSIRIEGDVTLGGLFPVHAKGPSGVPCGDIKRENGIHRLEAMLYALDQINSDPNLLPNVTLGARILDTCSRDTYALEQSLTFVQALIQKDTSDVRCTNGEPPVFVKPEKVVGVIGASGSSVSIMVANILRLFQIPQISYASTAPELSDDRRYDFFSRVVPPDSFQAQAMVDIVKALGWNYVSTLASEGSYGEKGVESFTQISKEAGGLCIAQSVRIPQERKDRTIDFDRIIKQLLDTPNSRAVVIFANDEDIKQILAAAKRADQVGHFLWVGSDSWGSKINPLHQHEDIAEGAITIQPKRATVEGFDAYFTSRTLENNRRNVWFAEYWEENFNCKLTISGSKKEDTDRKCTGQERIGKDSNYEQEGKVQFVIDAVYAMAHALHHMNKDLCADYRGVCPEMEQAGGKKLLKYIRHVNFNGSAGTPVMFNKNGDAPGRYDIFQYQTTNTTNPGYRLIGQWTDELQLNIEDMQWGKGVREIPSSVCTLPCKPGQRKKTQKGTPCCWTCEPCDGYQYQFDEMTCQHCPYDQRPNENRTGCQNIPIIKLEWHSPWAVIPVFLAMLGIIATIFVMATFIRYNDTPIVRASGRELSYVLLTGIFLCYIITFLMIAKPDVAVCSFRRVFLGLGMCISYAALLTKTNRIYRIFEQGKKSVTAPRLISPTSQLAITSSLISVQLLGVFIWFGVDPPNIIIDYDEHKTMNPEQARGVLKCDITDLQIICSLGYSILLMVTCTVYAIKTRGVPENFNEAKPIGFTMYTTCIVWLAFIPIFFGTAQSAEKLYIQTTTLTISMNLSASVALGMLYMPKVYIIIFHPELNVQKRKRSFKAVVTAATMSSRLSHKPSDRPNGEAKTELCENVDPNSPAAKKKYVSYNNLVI

EC50 | Compound
0.056 µM | COc1cc(F)cc2c(N3CCN4c5c(F)cccc5OC[C@H]4C3)c(C#N)nnc12
0.15 µM | COc1cc(F)cc2c(N3CCN4c5c(F)cccc5OC[C@@H]4C3)c(C#N)nnc12
0.13 µM | COc1cc(F)cc2c(N3CCN4c5c(F)cccc5OCC4C3)c(C#N)nnc12 (stereo not drawn)

Source: ChEMBL document CHEMBL5236641, “Persistent challenges in the development of an mGlu7 PAM in vivo tool compound: The discovery of VU6046980” (Bioorg Med Chem Lett, 2023)
